The values that follow come from ChEMBL document CHEMBL1667779, “Structure-based parallel medicinal chemistry approach to improve metabolic stability of benzopyran COX-2 inhibitors” (Bioorg Med Chem Lett, 2011).

Chains of the proteins cited; added tags and fusions are not shown.
UniProt P23219, whole entry: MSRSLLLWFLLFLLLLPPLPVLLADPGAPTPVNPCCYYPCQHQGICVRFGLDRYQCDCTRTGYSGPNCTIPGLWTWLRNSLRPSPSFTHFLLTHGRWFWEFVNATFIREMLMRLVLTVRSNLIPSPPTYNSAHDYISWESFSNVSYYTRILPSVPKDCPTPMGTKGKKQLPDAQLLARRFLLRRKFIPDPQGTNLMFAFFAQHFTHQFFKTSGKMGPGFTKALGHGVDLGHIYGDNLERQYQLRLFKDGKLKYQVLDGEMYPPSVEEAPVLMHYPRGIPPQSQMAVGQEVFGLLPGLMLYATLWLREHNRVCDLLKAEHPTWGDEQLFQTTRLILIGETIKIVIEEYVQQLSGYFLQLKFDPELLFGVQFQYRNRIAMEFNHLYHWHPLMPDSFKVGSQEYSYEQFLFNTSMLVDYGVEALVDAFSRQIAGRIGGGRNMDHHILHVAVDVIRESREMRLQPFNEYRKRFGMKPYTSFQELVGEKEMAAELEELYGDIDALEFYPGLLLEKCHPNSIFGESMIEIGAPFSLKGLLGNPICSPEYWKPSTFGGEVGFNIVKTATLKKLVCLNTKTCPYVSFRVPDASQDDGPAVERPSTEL

Molecules are shown by their SMILES.

This assay addresses Prostaglandin G/H synthase 1 (Homo sapiens, UniProt P23219).

One may read the IC50 as the concentration needed to halve the response being measured. A lower IC50 goes with greater potency in that assay. As to `CCSc1ccc(-c2cc(Cl)cc3c2OC(C(F)(F)F)C(C(=O)O)=C3)cc1` (stereo unspecified), the IC50 turned out to be 75.9 µM. This counts as double-digit micromolar.
